Target: PDHK2 (Homo sapiens (Human), UniProt Q15119)
Experiment: Biochemical activity testing of PDHK2: PDC inactivation assay
Conditions: read-out: Inhibition: IC50 (PDHK2); prior-art compound of WO 2001/017942; unit inferred
Excerpt: Biochemical Activity Testing of PDHK2: PDC Inactivation Assay
The biochemical activity assay for PDHK2 is based on the inactivation of PDC through phosphorylation by PDHK2. The assay is run in two steps: the enzymatic PDHK2 reaction in which isolated PDC is phosphorylated by PDHK2 with ATP as co-substrate and the PDC activity assay in which pyruvate and NAD are converted to acetyl-CoA and NADH. The PDC activity correlates to the increase in NADH and thereby is detectable directly via the increasing fluorescence signal (Exc 340 nm, Em 450 nm). Inhibition of PDHK2 results in a lower phosphorylation status and thereby a less decrease in activity of PDC and a stronger increase in NADH fluorescence signal.
The PDC inactivation assay is performed in Greiner 384-well microtiter plates and is used for high throughput screen. […] The first fluorescence measurement is performed on a Perkin Elmer Envision (Exc 340 nm, Em 450 nm). […] Afterwards a second fluorescence measurement is performed and the PDC activity is calculated by the difference between both measurements. […] The inhibitory values (IC50) were determined using either the program Symyx Assay Explorer® or Condosseo® from GeneData.

## C[C@@](O)(C(=O)N1CCC(NC(=O)c2ccc(C#N)cc2)CC1)C(F)(F)F
  IC50: 9.7 µM

Reference: patent US10428024B2, “Piperidinyl derivatives” (MERCK PATENT GMBH, priority 2016, dated 2019)
